Tests used:
[1] = molecular target: T1, Sirt3 (Homo sapiens, UniProt Q9NTG7); assay: Fluorescence-based (FdL) assay of Sirt3 deacylation activity under steady state conditions; type: biochemical
T1 construct: The hSirt3^118-399 was purchased from Xtal Biostructures (Natick, MA); purchased Xtal Biostructures (Natick, MA)
T1 sequence (Q9NTG7 118-399): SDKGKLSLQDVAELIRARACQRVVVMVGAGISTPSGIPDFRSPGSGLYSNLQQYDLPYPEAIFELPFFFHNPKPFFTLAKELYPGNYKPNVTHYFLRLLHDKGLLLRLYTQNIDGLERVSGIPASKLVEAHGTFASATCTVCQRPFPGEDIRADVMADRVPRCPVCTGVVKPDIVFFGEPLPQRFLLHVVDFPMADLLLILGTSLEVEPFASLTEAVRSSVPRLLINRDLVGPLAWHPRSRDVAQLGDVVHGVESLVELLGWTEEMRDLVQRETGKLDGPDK
Method: FIG. 58 illustrates a dose-response curve of the compound of FIG. 29 under steady state condition where [NAD^+]=1 mM, [FdL2 peptide]=50 μM, [E0]/[NAD^+]=0.0015 at 30 min time point (N=3).
Reference compounds of FIGS. 1 and 28-29 were screened using a fast fluorescence-base assay (FdL) under the steady state condition (low enzyme concentration, high reaction time) to validate binding and activity modulation, and show different degrees of inhibitory effect. […] FIG. 58 illustrates a dose-response curve of the compound of FIG. 29 under steady state condition where [NAD^+]=1 mM, [FdL2 peptide]=50 μM, [E0]/[NAD^+]=0.0015 at 30 min time point (N=3).
(§1) MnSOD (KGELLEAI-(KAc)-RDFGSFDKF) was synthesized by GenScript (Piscataway, NJ). FdL2 (QPKK^AC-AMC) peptide, also called p53-AMC peptide, was purchased from Enzo Life Sciences (Farmingdale, NY). Carba-NAD was synthesized by Dalton Pharma (Toronto, ON). The hSirt3^118-399 was purchased from Xtal Biostructures (Natick, MA). Virtual screening hits were supplied from ChemBridge Corp. (San Diego, CA).
(§2) Effect of Hit Compounds on hSirt3^118-399 Deacetylation Activity

[2] = molecular target: T1, Sirt3; assay: HPLC assay of Sirt3 deacylation activity under non-steady state conditions; type: biochemical; conditions: compound 10 μM, 2 minute time point, read-out: % Control (10 μM), Sirt3 deacylation activity
Method: As an established Sirt3 activator, HKL was studied to investigate how the time series of activity modulation depends on the concentration [E]0 of enzyme. The activation of Sirt3 was tested and confirmed by HPLC-assay under non-steady state condition (high enzyme concentration, short reaction time) in the presence of two out of reference compounds of FIGS. 1 and 29. This non-steady state was studied using 50 U or 100 U of enzyme and 50 μM of NAD^+, E0/NAD^+=0.3-0.6 and 2 minute time point to limit the substrate concentration such that steady state is achieved later. The NAD^+ concentration used in our non-steady state study is close to physiological concentration during aging since mitochondrial NAD^+ is ˜200 μM in young age and can drop by 50% or more in old age.
as §1, §2
HPLC Assay Using Native Peptide […]

remaining activity at 1 µM ([1]; compound 1 μM, read-out: % Control, Sirt3 deacylation activity): 94.1 ± 1.2%
remaining activity at 10 µM ([1]; compound 10 μM, read-out: % Control, Sirt3 deacylation activity): 63.7 ± 0.6%
% Control, Sirt3 deacylation activity ([1]; compound 50 μM or maximum): 33.7 ± 2.4%
inhibition at 50 µM ([1]; compound 50 μM, read-out: Sirt3 deacylation activity inhibited): 66.3%
remaining activity at 10 µM ([2]; [E]0/[NAD+]0 = 0.3, 50 μM NAD+): 107 ± 2%
remaining activity at 10 µM ([2]; [E]0/[NAD+]0 = 0.6, 50 μM NAD+): 122 ± 1.6%
Structure (SMILES): CCCCNC(=O)COc1ccc2c(c1)CCc1ccccc1C2NC(=O)CCCOc1cc([N+](=O)[O-])c(C(C)O)cc1OC (stereo not drawn) [FIG. 29, N-[6-[2-(butylamino)-2-oxo-ethoxy]-2-tricyclo[9.4.0.03,8]pentadeca-1(11),3(8),4,6,12,14-hexaenyl]-4-[4-(1-hydroxyethyl)-2-methoxy-5-nitro-phenoxy]butanamide]

From US12215069B2, “Sirtuin modulating compounds and applications thereof” (Codagen Biosciences, Inc., priority 2022, dated 2025)
